Assay results reported in US20240374573A1, “IMIDAZOLE CONTAINING COMPOUNDS, DERIVATIVES THEREFORE, AND USES THEREOF” (AglaeaPharma Inc., priority 2023, published 2024).
Like-named read-outs stand apart in the source and are kept apart here.

Chains of the proteins cited; added tags and fusions are not shown.
UniProt P08913, whole entry: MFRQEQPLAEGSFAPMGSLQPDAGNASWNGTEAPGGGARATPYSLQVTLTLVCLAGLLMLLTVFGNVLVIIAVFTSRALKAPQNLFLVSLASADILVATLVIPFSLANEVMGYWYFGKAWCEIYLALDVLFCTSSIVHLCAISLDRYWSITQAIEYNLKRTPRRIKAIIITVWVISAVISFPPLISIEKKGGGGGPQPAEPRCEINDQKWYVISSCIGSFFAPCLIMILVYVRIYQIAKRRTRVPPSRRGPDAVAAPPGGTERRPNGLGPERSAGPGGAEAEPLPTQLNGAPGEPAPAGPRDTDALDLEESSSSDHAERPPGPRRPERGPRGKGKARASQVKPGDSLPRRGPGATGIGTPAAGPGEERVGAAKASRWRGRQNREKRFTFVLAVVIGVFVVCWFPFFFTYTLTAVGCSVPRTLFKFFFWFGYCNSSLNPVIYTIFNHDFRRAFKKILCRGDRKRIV
UniProt P08183, whole entry: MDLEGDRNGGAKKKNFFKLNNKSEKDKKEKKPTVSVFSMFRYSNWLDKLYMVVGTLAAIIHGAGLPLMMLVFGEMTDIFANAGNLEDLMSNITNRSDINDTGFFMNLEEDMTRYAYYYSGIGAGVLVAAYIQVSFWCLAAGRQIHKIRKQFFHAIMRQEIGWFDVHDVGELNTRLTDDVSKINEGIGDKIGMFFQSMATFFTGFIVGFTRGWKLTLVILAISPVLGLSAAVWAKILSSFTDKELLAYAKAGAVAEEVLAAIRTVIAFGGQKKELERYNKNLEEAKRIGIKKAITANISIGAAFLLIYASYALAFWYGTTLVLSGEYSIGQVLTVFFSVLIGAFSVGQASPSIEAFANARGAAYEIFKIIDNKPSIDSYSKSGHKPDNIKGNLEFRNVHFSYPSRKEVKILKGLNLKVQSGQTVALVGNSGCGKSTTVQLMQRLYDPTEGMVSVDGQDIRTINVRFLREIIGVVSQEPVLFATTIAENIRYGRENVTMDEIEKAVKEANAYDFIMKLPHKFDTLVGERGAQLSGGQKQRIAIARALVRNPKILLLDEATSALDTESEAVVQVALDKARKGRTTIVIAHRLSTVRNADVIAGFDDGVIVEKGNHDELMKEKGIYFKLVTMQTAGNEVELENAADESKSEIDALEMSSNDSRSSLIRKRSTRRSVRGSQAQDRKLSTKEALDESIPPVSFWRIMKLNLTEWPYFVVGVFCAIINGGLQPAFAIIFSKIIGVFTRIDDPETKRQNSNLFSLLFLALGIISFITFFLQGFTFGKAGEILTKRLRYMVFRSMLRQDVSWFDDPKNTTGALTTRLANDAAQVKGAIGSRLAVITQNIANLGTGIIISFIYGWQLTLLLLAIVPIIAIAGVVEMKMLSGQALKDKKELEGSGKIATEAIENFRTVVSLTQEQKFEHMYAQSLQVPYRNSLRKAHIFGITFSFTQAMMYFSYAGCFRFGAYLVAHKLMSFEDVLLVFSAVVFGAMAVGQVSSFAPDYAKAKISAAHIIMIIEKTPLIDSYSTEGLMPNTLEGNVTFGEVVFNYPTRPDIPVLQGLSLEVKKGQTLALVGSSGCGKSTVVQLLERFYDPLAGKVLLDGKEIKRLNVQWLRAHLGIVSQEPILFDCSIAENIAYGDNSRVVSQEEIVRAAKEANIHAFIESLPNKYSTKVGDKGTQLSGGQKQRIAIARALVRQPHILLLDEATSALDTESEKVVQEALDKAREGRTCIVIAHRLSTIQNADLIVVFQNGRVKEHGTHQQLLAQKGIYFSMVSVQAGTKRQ

What was measured:
α2AAR = α2AAR (Homo sapiens, UniProt P08913); assay: α2AAR binding assay ([3H]-RX 821002 radioligand); settings: read-out: α2A affinity (Ki), [3H]-RX 821002 0.5 nM, HEK293 membranes
P-glycoprotein (P-gp) = P-glycoprotein (P-gp) (Homo sapiens, UniProt P08183); settings: tested form: HCl
[1] = biological target: α2AAR (α2A-adrenergic receptor) (Homo sapiens, UniProt P08913); assay: α2AAR FLIPR assay (agonist activity); assay type: cell-based
[2] = read-out: α2A agonist activity (EC50), α2AAR cell line hosted in HEK293 cells, tested form: TFA

Row | Compound | Ki (α2AAR; tested form: HCl) [nM] | efflux ratio (P-glycoprotein (P-gp)) | EC50 ([1]; read-out: α2A agonist activity (EC50), α2AAR cell line hosted in HEK293 cells, tested form: HCl) [nM] | Ki (α2AAR; tested form: TFA) [nM] | EC50 [1, 2] [nM]
1 | Cc1cccc(C(Cc2ccc(NC(=O)C3CCOCC3)cc2)c2c[nH]cn2)c1C (centres unmarked) [compound 157] | < 10 | 10.8 | 10 to 50 |  | 
2 | Cc1cccc(C(c2cccc(NC(=O)CC3CCOC3)c2)c2c[nH]cn2)c1C (single isomer, unassigned) |  |  |  | < 10 | 10 to 50
3 | Cc1cccc(C(CCc2cccc(NS(C)(=O)=O)c2)c2c[nH]cn2)c1C (centres unmarked) |  |  |  | 50 to 250 | 
4 | Cc1cccc(C(c2cccc(NC(=O)CCN3CCCCC3)c2)c2c[nH]cn2)c1C (centres unmarked) |  |  |  | < 10 | 10 to 50
5 | CONC(=O)c1ccc2c(c1)C(C(NC1=NCCS1)c1ccccc1OC)CC2 (centres unmarked) | 10 to 50 |  |  |  | 
6 | COCC(=O)Nc1ccc(CC(c2c[nH]cn2)c2cccc(C)c2C)cc1 (centres unmarked) [compound 195] |  |  |  | 50 to 250 | 50 to 250
